Legend:
[1] = system: GS 11331 gastrointestinal stromal tumor PDX model; test: In vivo efficacy, single agents (Example 3); conditions: for anti-tumor efficacy: vs vehicle; for T/C / TGI: day 56; for Tumor Size on Day 56: mean
Description: This study investigated the therapeutic efficacy of M4205 and compounds of Formula (I) (e.g., Compound 198) as single test agents in GS 11331 gastrointestinal stromal tumor PDX model in female BALB/c nude mice.
Methods: Tumor inoculation was conducted as follows. Fresh tumor tissues from stock mice were harvested and used for inoculation into mice. Each mouse was inoculated subcutaneously in the right front flank with primary human tumor xenograft model tumor fragments (approximately 2-3 mm in diameter) for tumor development.
The randomization started when the mean tumor size reached approximately 147-148 mm^3. 42 mice were enrolled in the study. All animals were randomly allocated to 7 study groups based on the tumor volume, 6 mice in each group. Randomization was performed based on “Matched distribution” method/“Stratified” method (StudyDirector™ software). The date of randomization was denoted as day 0.
(§1) The treatment was initiated on the same day of randomization (day 0) per study design.
(§2) Observations and Data Collection: After tumor cells inoculation, the animals were checked daily for morbidity and mortality. During routine monitoring, the animals were checked for any effects of tumor growth and treatments on behavior such as mobility, food and water consumption, body weight gain/loss (body weights were measured twice per week after randomization), eye/hair matting and any other abnormalities. Mortality and observed clinical signs were recorded for individual animals in detail.
(§3) Tumor volumes were measured twice per week after randomization in two dimensions using a caliper, and the volume was expressed in mm^3 using the formula: “V=(L×W×W)/2, where V was tumor volume, L was tumor length (the longest tumor dimension) and W was tumor width (the longest tumor dimension perpendicular to L). Dosing as well as tumor and body weight measurements were conducted in a Laminar Flow Cabinet. The body weights and tumor volumes were measured by scale and caliper, the data was recorded by using StudyDirector™ software.
Study Termination: The treatments were performed for 57 days. The study was terminated on day 57. Tumors were not collected for euthanized mice before termination of the study. No sampling for mice found dead.
(§4) Therefore, an ANOVA test was conducted to determine whether there exists any pair of groups with different group means and run the post hoc Tukey HSD for all pairwise comparisons or Dunnett's t test for each treatment against one control.
(§5) Then a Kruskal-Wallis test was conducted to determine if there exists any pair of groups with different group medians and run the post hoc Conover's non-parametric all-pairs comparison test for all pairwise comparisons, or Conover's non-parametric many-to-one comparison test for each treatment against one control.
(§6) Both tests use single-step p-value adjustment. In addition, pairwise comparisons were performed without multiple comparison correction and report nominal/uncorrected p-values directly from Welch's t-test or Mann-Whitney U test. The criterion of choosing Welch's t-test or Mann-Whitney U test is the same as the two-group comparison method mentioned above. All statistical analyses had been done in R language and environment for statistical computing and graphics (version 3.6.0). All tests were two-sided unless otherwise specified, and p-values of <0.05 are regarded as statistically significant. For survival analysis, Kaplan-Meier model with Log-rank method was applied.

[2] = Body weight / tolerability (Example 5); conditions: treatment groups
Description: as §2
(§7) Criteria for Dosing Holiday and Supplemental Gel Administration: No dosing holiday. Treatment resumed when the BWL recovered. Sacrificed the individual mouse when BWL>15% for 72 hours. Supplemental gels were administered to the individual mouse with BWL>15%. BWL was calculated based in the BW of mouse on the day of randomization.
(§8) Endpoints: The body weight of all animals was monitored throughout the study and animals were euthanized if they lost over 20% of their body weight relative to the weight on the first day of treatment. The individual mouse was euthanized if its tumor volume exceeded 3000 mm^3. […] The mouse was euthanized rapidly if: tumor ulcerates, and the ulceration diameter was greater than 5 mm, or pus or necrosis observed; or tumor burden, including metastasis, compromises animal's normal physiologic performances, e.g., orientation, access to food or water. The mouse was euthanized rapidly if the animal was: emaciated—skeletal structure extremely prominent, little or no flesh cover, vertebrae distinctly segmented; persistent hypothermia; blood stained or mucopurulent discharge from any orifice; labored breathing, particularly accompanied by nasal discharge or cyanosis; hind limb paralysis or weakness (cannot reach food and water); severe anemia, mainly indicated by pale feet or ears; severe infection; incontinence or diarrhea over 48 hours; or severe dehydration.

[3] = Body weight / tolerability (Example 3); conditions: treatment groups
Description: as §2, §7, §8

[4] = system: GS 11331 gastrointestinal stromal tumor PDX model; test: In vivo efficacy, alone and in combination (Example 5); conditions: for TGI: Table 11; for Tumor Size on Day 56: mean ± SEM, Day 56 per head
Source text: This study investigated the therapeutic efficacy of M4205 and compounds of Formula (I) (e.g., Compound 198) as single test agents and in combination in GS 11331 gastrointestinal stromal tumor PDX model in female BALB/c nude mice.
(§9) Methods: Fresh tumor tissues from stock mice were harvested and used for inoculation into mice. Each mouse was inoculated subcutaneously in the right front flank with primary human tumor xenograft model tumor fragments (approximately 2-3 mm in diameter) for tumor development.
The randomization started when the mean tumor size reached approximately 176-178 mm^3. 54 mice were enrolled in the study. All animals were randomly allocated to 9 study groups based on the tumor volume, 6 mice in each group. Randomization was performed based on “Matched distribution” method/“Stratified” method (StudyDirector™ software). The date of randomization was denoted as day 0.
as §1, §2, §3
Study Termination: The treatments were performed for 28 days. The study was terminated on day 28. Tumors were not collected for euthanized mice before termination of the study. No sampling for mice found dead.
as §4, §5, §6

cKIT Exon 9 = test: Potency against KIT exon 9
[5] = system: primary and secondary cKIT mutations; test: Inhibition of cKIT mutations
cKIT Exon 13 = test: Potency against KIT exon 13
[6] = system: multiple mutants of exon 17 (cKIT); test: Potency against multiple mutants of KIT exon 17
[7] = First-in-human Phase 1/1b study of M4205 in subjects with GIST
Source text: This study is designed to evaluate the safety, tolerability, PK, and preliminary antitumor activity of M4205 in adult participants with advanced (metastatic and/or surgically unresectable) GIST.
This is a Phase 1/1b, first-in-human (FIH) study of M4205, an orally administered small molecule tyrosine kinase inhibitor. Eligible participants have metastatic and/or surgically unresectable GIST, after failure of at least imatinib due to progression of GIST. The study consists of 2 parts. Phase 1 comprises dose escalation to assess clinical and pharmacologic profile, safety/tolerability, and support choice of the recommended phase 2 dose and schedule (RP2DS). Phase 1b expansion will enroll separate cohorts of participants defined by numbers of lines of prior GIST therapy at the selected RP2DS to assess the preliminary antitumor effect of M4205 and further characterize the safety profile of M4205 at the RP2DS.
Cohort 1 consisted of subjects who have progressed on imatinib only (n=29). Cohort 2 consisted of subjects who have progressed on both imatinib and sunitinib or progressed on imatinib, sunitinib, and an additional agent (e.g., regorafenib or ripretinib). Cohort 3 consisted of subjects who have progressed on imatinib, sunitinib, regorafenib, and ripretinib. Cohort 3 400 mg QD dose confirmed to be safe and tolerable.
Dose-related increase in exposure was observed from 120 mg to 600 mg QD.

cKIT Exon 11 = test: Potency against KIT exon 11
[8] = system: GS11331 gastrointestinal stromal tumor PDX model; test: In vivo combination efficacy (Example 4)
Source text: This study investigated the combination efficacy of M4205 and compounds of Formula (I) (e.g., Compound 198) in GS11331 gastrointestinal stromal tumor PDX model in female BALB/c nude mice.
as §9
The randomization started when the mean tumor size reached approximately 184 mm^3. 56 mice were enrolled in the study. All animals were randomly allocated to 7 study groups based on the tumor volume, 8 mice in each group. Randomization was performed based on “Matched distribution” method/“Stratified” method (StudyDirector™ Software). The date of randomization was denoted as day 0.
The treatment was initiated on the same day of randomization (day 1) per study design.
as §2, §3
Study Termination: The treatments were performed for 28 days. The study was terminated on day 29. Tumors were not collected for euthanized mice before termination of the study. No sampling for mice found dead.
as §4, §5
Both tests use single-step p-value adjustment. […]

[9] = Group 2: Compound 198 3 mg/kg p.o. QD×30 days
[10] = Group 3: Compound 198 10 mg/kg p.o. QD×30 days
[11] = Group 4: Compound 198 30 mg/kg p.o. QD×30 days
[12] = Group 4: Compound 198 3 mg/kg p.o. QD×28 days
[13] = Group 5: Compound 198 10 mg/kg p.o. QD×28 days
[14] = Group 5: M4205 1 mg/kg p.o. QD×30 days
[15] = Group 6: M4205 2.5 mg/kg p.o. QD×30 days
[16] = Group 7: M4205 10 mg/kg p.o. QD×30 days
[17] = Group 2: M4205 1 mg/kg p.o. QD×28 days
[18] = Group 3: M4205 2.5 mg/kg p.o. QD×28 days
[19] = Group 9: sunitinib 20 mg/kg p.o. QD×28 days

In the case of CC(C)(O)Cn1cc(-c2cnc(Nc3cc(N)nc(C(F)F)n3)cc2OC(F)(F)F)cn1, the anti-tumor efficacy ([1]; Compound 198 mid-dose and high-dose single treatment) was “statistically significant anti-tumor efficacy”, the T/C [1, 9] was 0.63 and the TGI [1, 9] was 36.77%. For the same compound, the “Tumor Size on Day 56” value [1, 9] was 1103.58 mm^3, the T/C [1, 10] was 0.05 and the TGI [1, 10] was 95.04%. For the same compound, the “Tumor Size on Day 56” value [1, 10] was 86.65 mm^3, the T/C [1, 11] was 0.01 and the TGI [1, 11] was 98.58%. For the same compound, the “Tumor Size on Day 56” value [1, 11] was 24.72 mm^3, the body weight loss [2] was “no significant body weight loss” and the tolerability [2] was “well-tolerated”. The body weight loss [3] was “no significant body weight loss”, the tolerability [3] was “well-tolerated” and the anti-tumor efficacy ([4]; Compound 198 mid-dose single treatment, vs vehicle) was “significant anti-tumor efficacy”. The T/C [4, 12] was 0.83, the TGI [4, 12] was 17.21% and the “TGI value on day 25” value [4, 12] was 17.21%. For the same compound, the T/C [4, 13] was 0.15, the TGI [4, 13] was 84.99% and the “TGI value on day 25” value [4, 13] was 84.99%.

For Cn1cc(-c2ccc(CNc3cc(-c4cnc5cc(OCCCN6CCCC6)ccn45)ncn3)cc2)cn1, the T/C [1, 14] was 0.92, the TGI [1, 14] was 7.65% and the “Tumor Size on Day 56” value [1, 14] was 1611.88 mm^3. For the same compound, the T/C [1, 15] was 0.14, the TGI [1, 15] was 86.16% and the “Tumor Size on Day 56” value [1, 15] was 241.61 mm^3. The T/C [1, 16] was 0.01, the TGI [1, 16] was 98.18% and the “Tumor Size on Day 56” value [1, 16] was 20.84 mm^3. For the same compound, the anti-tumor efficacy ([1]; M4205 mid-dose and high-dose single treatment) was “statistically significant anti-tumor efficacy”, the body weight loss [2] was “no significant body weight loss” and the tolerability [2] was “well-tolerated”. For the same compound, the “potency against Exon 9” value (cKIT Exon 9) was “potent”, the “inhibition of primary and secondary cKIT mutations” value [5] was “inhibits primary and secondary cKIT mutations” and the “potency against Exon 13” value (cKIT Exon 13) was “somewhat less potent, though still active”. The “potency against multiple mutants of exon 17” value [6] was “potent”, the body weight loss [3] was “no significant body weight loss” and the tolerability [3] was “well-tolerated”. For the same compound, the exposure ([7]; 120 mg to 600 mg QD) was “Dose-related increase in exposure”, the safety and tolerability ([7]; Cohort 3, 400 mg QD dose) was “safe and tolerable” and the “half-life (t1/2)” value ([7]; oral) was “about 150 hours”. The “accumulation at steady state” value ([7]; oral, steady state) was 5-7 fold, the T/C [4, 17] was 0.64 and the TGI [4, 17] was 35.95%. For the same compound, the “TGI value on day 25” value [4, 17] was 35.95%, the “Tumor Size on Day 56” value [4, 17] was 331.27 +/− 31.17(5) mm^3 and the T/C [4, 18] was 0.25. The TGI [4, 18] was 74.54%, the “TGI value on day 25” value [4, 18] was 74.54% and the “Tumor Size on Day 56” value [4, 18] was 131.67 +/− 34.02(6) mm^3. For the same compound, the anti-tumor efficacy ([4]; M4205 mid-dose single treatment, vs vehicle) was “significant anti-tumor efficacy” and the “potency against Exon 11” value (cKIT Exon 11) was “potent”.

In the case of CCN(CC)CCNC(=O)c1c(C)[nH]c(/C=C2\C(=O)Nc3ccc(F)cc32)c1C, the T/C ([8]; Group 2: sunitinib 10 mg/kg p.o. QD×28 days) was 0.48, the TGI ([8]; Group 2: sunitinib 10 mg/kg p.o. QD×28 days, Table 8) was 51.65% and the “TGI value on day 24” value ([8]; Group 2: sunitinib 10 mg/kg p.o. QD×28 days, day 24) was 51.65%. The anti-tumor efficacy ([8]; positive control, sunitinib 10 mg/kg) was “expected anti-tumor efficacy”, the T/C [4, 19] was 0.23 and the TGI [4, 19] was 76.69%. For the same compound, the “TGI value on day 25” value [4, 19] was 76.69% and the anti-tumor efficacy ([4]; positive control, sunitinib 20 mg/kg) was “expected anti-tumor efficacy”.

Reference: patent publication US20260382609A1, “Combination Therapy Comprising Kit Inhibitors for Use in the Treatment of Cancer” (published 2026)
